For the assay, the target named is E3 ubiquitin-protein ligase XIAP (Homo sapiens, UniProt P98170). As to the kind of experiment: SAR analysis of Antagonists of IAP-family anti-apoptotic proteins. An excerpt:
Compounds are either acquired from commercial sources or synthesized internally.

By UniProt entry, the sequences of proteins in these tests, tags left out.
UniProt P98170, whole entry: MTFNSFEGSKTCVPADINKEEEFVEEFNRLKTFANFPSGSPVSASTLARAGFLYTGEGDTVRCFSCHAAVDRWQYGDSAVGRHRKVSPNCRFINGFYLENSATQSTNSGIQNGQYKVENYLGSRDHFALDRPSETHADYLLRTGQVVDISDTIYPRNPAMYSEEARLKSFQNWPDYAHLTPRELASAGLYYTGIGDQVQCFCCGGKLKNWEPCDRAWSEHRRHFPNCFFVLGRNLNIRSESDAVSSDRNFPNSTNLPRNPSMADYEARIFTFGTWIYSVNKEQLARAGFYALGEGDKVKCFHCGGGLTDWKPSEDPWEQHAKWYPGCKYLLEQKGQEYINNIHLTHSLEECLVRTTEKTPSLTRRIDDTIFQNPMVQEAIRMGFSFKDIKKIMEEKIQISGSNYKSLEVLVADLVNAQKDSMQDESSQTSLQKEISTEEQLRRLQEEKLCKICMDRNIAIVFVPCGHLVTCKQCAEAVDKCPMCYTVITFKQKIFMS

Molecules are shown by their SMILES.

In the case of `CNC(C)C(=O)NC(C(=O)N1CCCC1C(=O)NC(C(=O)NCCCCCNC(=O)C(NC(=O)C1CCCN1C(=O)C(NC(=O)C(C)NC)C1CCCCC1)C(c1ccccc1)c1ccccc1)C(c1ccccc1)c1ccccc1)C1CCCCC1` (stereo unspecified) [MLS-0390866.0001], it took 16.8 µM to reach half-maximal inhibition (IC50).

For the origin of these results see BindingDB's records for doi:10.7270/Q2FN14KV (Burnham Center For Chemical Genomics, 2009).
